According to patent US20060035245, “Modulators of enzymatic nucleic acid elements mobilization” (published 2006):

T1: Tn5 transposase hyperactive mutant (EK54, MA56, LP372) (UniProt Q46731 Q46731:1-476, E54K,M56A,L372P)
T1 sequence: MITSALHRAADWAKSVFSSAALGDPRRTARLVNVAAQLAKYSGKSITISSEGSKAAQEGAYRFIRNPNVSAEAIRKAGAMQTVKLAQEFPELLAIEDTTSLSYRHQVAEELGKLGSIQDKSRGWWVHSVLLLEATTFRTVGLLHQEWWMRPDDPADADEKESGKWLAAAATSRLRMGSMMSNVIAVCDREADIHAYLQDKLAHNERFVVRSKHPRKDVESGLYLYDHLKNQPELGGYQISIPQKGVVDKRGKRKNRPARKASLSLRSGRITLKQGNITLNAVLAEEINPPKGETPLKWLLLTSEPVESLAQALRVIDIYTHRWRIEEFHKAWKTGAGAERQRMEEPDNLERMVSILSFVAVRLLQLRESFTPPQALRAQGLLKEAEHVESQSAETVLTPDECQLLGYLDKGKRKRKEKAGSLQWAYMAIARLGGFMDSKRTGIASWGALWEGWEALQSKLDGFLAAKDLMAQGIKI

B1: 19 bp Tn5 recognition end (dsDNA)
DNA 1: CTGTCTCTTATACACATCT
DNA 2: AGATGTGTATAAGAGACAG
B2: 40 bp Tn5 transposon end (dsDNA)
DNA 1: CTGTCTCTTATACACATCTTGAGTGAGTGAGCATGCATGT
DNA 2: ACATGCATGCTCACTCACTCAAGATGTGTATAAGAGACAG

Legend:
[1] = target: T1, Tn5 transposase hyperactive mutant …; experiment: FP; self-competition by unlabeled DNA; 160 nM labeled DNA, 800 nM transposase; conditions: chain copies: 2; label: rhodamine green 5' end of transferred strand
Protocol: (§1) FIG. 4 is a comparison of FP and gel shift synapsis assays. Fluorescence polarization (FP) is a good measurement of the amount of synaptic complexes being formed. Increasing concentrations of unlabeled DNA (0.001, 0.005, 0.01, 0.05, 0.1, 0.5, 1, 2, 5, 8, 10, 20, 50 μM) was used as a competitive inhibitor for synaptic complex formation using 160 nM fluorescently labeled DNA and 800 nM transposase. FP data (bottom) was compared to data obtained using gel shift assays (top). Bands labeled hetero DNA-transposase represent two dsDNA molecules, one fluorescently labeled and one unlabeled. […] Each data point represents at least two, typically three, independent experiments. Error is represented as the standard deviation (SD) from the fit of the data to the equation used to calculate the IC₅₀. Tnp=transposase.
(§2) FP and gel-shift assays: Reactions were performed as described in Ason, B., and W. S. Reznikoff, J Mol Biol 335:1213-25, 2004, except 800 nM transposase and 160 nM dsDNA were used for complex formation. For FP analysis, 60 μL reactions were analyzed using the FP protocol on a Wallac Victor V plate reader and a 7% native polyacrylamide gel was used in gel shift assays. For compound screening and subsequent analysis, 1 μL of either DMSO or test compound (final concentration 80 μM) was added to the synapsis reactions. […]

[2] = target: T1, Tn5 transposase hyperactive mutant …; experiment: EMSA; self-competition by unlabeled DNA; 160 nM labeled DNA, 800 nM transposase; conditions: chain copies: 2; label: fluorescein 5' end of transferred strand
Protocol: as §1, §2

Binder | IC50 [1] [µM] | IC50 [2] [µM]
B1 | 2.6 | 
B2 |  | 5.1
